11 compounds from PubChem BioAssay AID1509 (The Scripps Research Institute Molecular Screening Center, 2009) can be followed below.

Protein sequences, listed by entry. Tags and fused reporters are not part of them.
UniProt O95977, whole entry: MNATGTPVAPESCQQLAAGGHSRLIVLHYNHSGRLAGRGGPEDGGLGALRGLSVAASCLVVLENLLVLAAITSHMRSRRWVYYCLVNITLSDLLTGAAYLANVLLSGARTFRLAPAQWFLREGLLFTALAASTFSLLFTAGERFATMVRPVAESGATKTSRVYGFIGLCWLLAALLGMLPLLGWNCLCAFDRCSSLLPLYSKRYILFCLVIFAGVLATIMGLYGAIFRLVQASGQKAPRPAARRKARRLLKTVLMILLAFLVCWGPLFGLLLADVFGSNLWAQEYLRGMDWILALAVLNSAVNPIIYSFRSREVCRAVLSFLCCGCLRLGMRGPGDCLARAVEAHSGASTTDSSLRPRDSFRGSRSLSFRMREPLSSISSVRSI

Each structure is given as a SMILES string. This is a selection; strong and weak results do not stand in their true shares. Some tests of the compounds listed are not included; inactive here does not mean inactive elsewhere. Calls of active or inactive are those of the source. No stated cut-off is given here; in the data, active means activation above about 11%; inactive means the rest.

This test has as its target Sphingosine 1-phosphate receptor 4 (Homo sapiens) (UniProt O95977). Put plainly: activators of human S1P4 receptor – cell-based, primary screen (AID 1509).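 Further: 0% = DMSO vehicle and 100% = reference agonist.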 The note with it: S1P4-expressing cell line, agonist reporter assay; at 4.98 µM; hits give high values.
Turning to `COc1cccc(C(=O)NCC2(N3CCCCC3)CCCCC2)c1`, the activation was inactive: 0.13%.
`O=C(OC1CN2CCC1CC2)C(CO)(c1ccccc1)c1ccccc1` (stereo unspecified): the activation is inactive: -2.17%.
The result for `COc1ccc(Br)c(C(=O)NCC2(N3CCCCC3)CCCCC2)c1` reads inactive: -0.07%.
The result for `CN(C)c1cccc(C(=O)NCC2(N(C)C)CCCCC2)c1` reads inactive: 0.13%.
The result for `O=C(NCC1(N2CCCCC2)CCCCC1)c1cc([N+](=O)[O-])ccc1Cl` reads inactive: 0.14%; that for `CC(C)N1C(=O)CC2(CCN(CCOC(=O)C(O)(c3ccccc3)c3ccccc3)CC2)C1=O`, inactive: 0.6%; that for `CCN(CC)CC(C)C(C)OC(=O)C(O)(c1ccccc1)c1ccccc1` (stereo unspecified), inactive: 0.28%.
With `CN(C)C1CCCC1OC(=O)C(O)(c1ccccc1)c1ccccc1` (stereo unspecified), the activation was inactive: 1.02%.
As to `Cc1ccccc1C(=O)NCC1(N2CCCCC2)CCCCC1`, the activation is inactive: -1.21%.
As to `C=CCN1CCN(CCOC(=O)C(O)(c2ccccc2)c2ccccc2)CC1`, the activation is inactive: 0.34%.
In the case of `CCN1CCCC(OC(=O)C2(O)c3ccccc3C=Cc3ccccc32)C1` (stereo unspecified), the activation is inactive: 0.54%.
